Reference: paper PMC2848180 (American journal of obstetrics and gynecology, 2010)

Amino acid sequences for entries named in this document (tags omitted). A change or cut given only in a name is not applied to a line headed by its entry.
UniProt P08183, whole entry: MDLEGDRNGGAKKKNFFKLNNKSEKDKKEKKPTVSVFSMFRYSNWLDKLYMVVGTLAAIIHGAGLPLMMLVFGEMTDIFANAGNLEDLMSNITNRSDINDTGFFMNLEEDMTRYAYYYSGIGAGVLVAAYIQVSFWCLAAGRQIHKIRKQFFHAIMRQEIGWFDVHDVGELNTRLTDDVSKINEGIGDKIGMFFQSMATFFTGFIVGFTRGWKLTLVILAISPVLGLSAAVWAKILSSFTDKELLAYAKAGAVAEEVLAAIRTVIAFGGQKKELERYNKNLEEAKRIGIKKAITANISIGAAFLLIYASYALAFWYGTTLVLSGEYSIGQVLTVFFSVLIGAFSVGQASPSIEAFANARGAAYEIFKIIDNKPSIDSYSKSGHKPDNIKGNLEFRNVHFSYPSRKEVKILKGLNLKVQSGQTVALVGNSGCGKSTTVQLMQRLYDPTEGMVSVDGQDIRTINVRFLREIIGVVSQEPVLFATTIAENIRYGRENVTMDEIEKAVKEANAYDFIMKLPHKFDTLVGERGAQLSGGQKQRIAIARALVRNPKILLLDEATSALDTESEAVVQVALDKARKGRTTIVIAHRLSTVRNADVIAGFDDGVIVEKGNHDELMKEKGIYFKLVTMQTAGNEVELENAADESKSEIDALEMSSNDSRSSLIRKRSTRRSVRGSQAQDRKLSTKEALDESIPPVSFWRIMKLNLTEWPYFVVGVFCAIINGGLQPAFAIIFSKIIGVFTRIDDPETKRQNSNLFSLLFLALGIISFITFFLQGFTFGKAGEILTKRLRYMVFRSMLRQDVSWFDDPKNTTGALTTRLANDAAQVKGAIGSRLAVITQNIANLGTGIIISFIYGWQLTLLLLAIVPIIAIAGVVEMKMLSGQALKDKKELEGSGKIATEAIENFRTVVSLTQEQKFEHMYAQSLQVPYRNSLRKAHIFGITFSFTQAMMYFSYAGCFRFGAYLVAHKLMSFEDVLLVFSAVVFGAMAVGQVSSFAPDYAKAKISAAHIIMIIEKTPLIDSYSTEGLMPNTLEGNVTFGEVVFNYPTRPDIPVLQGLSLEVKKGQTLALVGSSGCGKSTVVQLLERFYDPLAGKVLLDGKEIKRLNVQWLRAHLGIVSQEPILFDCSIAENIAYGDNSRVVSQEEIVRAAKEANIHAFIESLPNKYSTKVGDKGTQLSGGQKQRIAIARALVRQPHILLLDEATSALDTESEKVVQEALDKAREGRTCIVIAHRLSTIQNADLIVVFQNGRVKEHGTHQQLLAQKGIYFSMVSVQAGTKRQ
UniProt P33527: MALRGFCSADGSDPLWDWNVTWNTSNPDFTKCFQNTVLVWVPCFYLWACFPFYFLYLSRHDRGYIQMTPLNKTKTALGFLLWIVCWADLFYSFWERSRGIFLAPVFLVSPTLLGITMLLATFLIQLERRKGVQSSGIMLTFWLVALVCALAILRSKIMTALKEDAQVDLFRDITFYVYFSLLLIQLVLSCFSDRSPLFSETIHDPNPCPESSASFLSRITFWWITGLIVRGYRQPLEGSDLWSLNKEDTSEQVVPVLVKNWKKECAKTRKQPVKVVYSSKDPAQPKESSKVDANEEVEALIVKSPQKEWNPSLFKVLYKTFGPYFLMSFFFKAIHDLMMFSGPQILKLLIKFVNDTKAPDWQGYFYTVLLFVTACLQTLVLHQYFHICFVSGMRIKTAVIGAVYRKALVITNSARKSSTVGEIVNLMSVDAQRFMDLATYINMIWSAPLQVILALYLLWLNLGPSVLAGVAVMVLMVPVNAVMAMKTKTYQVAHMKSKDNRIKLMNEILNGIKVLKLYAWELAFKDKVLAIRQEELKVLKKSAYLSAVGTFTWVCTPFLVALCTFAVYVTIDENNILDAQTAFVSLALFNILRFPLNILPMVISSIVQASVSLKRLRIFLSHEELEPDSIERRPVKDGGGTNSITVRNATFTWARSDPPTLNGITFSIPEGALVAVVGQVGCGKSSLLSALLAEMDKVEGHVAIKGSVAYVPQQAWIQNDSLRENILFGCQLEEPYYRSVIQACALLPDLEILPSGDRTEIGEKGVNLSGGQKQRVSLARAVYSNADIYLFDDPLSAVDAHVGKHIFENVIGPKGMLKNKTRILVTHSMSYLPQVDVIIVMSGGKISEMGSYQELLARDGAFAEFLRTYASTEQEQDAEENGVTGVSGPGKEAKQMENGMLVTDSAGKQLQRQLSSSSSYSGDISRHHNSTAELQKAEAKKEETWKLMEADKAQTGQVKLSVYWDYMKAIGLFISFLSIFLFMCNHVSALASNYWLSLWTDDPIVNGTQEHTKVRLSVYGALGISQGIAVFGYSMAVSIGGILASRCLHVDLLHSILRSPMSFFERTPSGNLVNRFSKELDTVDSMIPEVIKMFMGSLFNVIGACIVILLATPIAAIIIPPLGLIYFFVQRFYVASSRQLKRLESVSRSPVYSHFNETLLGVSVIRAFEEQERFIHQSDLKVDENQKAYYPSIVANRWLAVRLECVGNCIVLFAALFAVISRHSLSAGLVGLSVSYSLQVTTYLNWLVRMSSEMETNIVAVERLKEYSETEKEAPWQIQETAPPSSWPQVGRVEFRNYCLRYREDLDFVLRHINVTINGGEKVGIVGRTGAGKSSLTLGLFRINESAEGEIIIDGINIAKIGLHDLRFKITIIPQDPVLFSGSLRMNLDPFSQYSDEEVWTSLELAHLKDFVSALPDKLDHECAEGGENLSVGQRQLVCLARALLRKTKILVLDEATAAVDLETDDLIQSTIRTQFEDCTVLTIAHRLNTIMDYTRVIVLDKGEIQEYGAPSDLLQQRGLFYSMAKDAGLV
UniProt Q9UNQ0: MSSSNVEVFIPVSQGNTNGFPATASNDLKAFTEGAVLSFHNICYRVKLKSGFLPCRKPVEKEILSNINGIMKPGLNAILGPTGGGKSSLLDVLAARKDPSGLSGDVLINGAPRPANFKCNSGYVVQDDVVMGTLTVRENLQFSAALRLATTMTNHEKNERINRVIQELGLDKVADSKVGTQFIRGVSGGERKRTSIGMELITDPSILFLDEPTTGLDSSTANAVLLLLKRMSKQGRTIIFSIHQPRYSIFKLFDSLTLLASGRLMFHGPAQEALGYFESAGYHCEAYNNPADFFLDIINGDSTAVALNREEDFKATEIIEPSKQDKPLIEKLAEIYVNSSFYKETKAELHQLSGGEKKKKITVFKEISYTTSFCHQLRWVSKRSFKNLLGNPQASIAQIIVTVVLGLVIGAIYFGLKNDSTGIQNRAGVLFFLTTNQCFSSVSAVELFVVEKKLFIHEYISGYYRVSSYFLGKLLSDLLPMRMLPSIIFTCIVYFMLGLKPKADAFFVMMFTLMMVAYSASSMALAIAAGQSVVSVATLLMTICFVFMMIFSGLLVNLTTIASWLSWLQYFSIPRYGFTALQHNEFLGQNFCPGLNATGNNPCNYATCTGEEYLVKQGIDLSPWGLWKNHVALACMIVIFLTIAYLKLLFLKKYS

How the values were obtained:
[1] = target: P-gp (Homo sapiens, UniProt P08183); settings: placental IOVs
[2] = target: MRP1 (Homo sapiens, UniProt P33527); settings: 100 nM drug, 100 μM indomethacin, placental IOVs, 1 min
[3] = target: BCRP (Homo sapiens, UniProt Q9UNQ0); settings: 100 nM drug, 25 nM KO143, placental IOVs, 1 min
[4] = test system: P-gp, BCRP, and MRP1; settings: 100 nM drug, 1 μM KO143, placental IOVs, 1 min

decrease of uptake on inhibition of P-gp by verapamil (transport by P-gp) ([1]; 100 nM drug, 600 μM verapamil, 1 min): 71 ± 26%
apparent Kt of ATP-dependent transport by P-gp [1]: 84 ± 47 nM
decrease of uptake on inhibition of MRP1 by indomethacin (transport by MRP1) [2]: no effect
decrease of uptake on inhibition of BCRP by 25 nM KO143 (transport by BCRP) [3]: no effect
decrease of uptake on total inhibition of P-gp, BCRP, and MRP1 using 1 μM KO143 [4]: 72 ± 36%
SMILES: CN(CCOc1ccc(CC2SC(=O)NC2=O)cc1)c1ccccn1 (centres unmarked) [rosiglitazone]
